Test results reported in patent US9452152B2, “Fe(III) complex compounds for the treatment and prophylaxis of iron deficiency symptoms and iron deficiency anemias” (Vifor (International) AG, priority 2012, dated 2016).

Assay: Comparison of the pH-dependent solubility (photometric iron determination)
Assay type: physicochemical
Text: The pH was adjusted to 6.5 with a phthalate buffer (0.1 m). […] UV device type SPECORD 205 manufacturer Jena Analytik). This value represents the solubility of the iron complex. If the weighed amount of the iron complex was completely dissolved, the measured value was indicated by the prefix “>”.

Solubility based on amount of iron (pH 6.5): >330 µg/mL
optical evaluation: dissolved? (water, pH 6.5 (phthalate buffer 0.1 m), 4 h, 25° C.): yes
Substance: Tris-(N,N-Dimethyl-3,4-dioxo-4-(pyrrolidine-1-yl)butaneamide)-iron(III) complex [Example 11]
